The text below walks through data of patent US4581451A, “Preparation of di- and tri-substituted xanthine compounds” (priority 1980, dated 1986).

Read-outs that look alike come from different tables or passages of the source.

Data set [1] is described as follows: in vivo. The following applies: mouse, po, solution in DMSO.
Data set [2] in a line: in vivo. The following applies: rat, po, solution in DMSO. The source says:
(b) Determination of the acute toxicity LD 50 in male and female rats in solution is DMSO (reference DMSO alone) in accordance with C.

`C=CCn1c(=O)c2[nH]c(C)nc2n(CCCC)c1=O` [Example 1, 1-allyl-3-butyl-8-methyl xanthine]: the LD50 in “in vivo [1]” (female, read-out: LD 50, mice female) came out at 62 mg/kg; in the data set “in vivo [1]” (male, read-out: LD 50, mice male) it was 72 mg/kg; in the data set “in vivo [2]” (female, read-out: LD 50, rats female), 24 mg/kg; in “in vivo [2]” (male, read-out: LD 50, rats male), 35 mg/kg.
